{"sequences": {"note": "Protein sequences, listed by entry. Tags and fused reporters are not part of them. Residues count along the entry.", "UniProt P08254, 100-477": "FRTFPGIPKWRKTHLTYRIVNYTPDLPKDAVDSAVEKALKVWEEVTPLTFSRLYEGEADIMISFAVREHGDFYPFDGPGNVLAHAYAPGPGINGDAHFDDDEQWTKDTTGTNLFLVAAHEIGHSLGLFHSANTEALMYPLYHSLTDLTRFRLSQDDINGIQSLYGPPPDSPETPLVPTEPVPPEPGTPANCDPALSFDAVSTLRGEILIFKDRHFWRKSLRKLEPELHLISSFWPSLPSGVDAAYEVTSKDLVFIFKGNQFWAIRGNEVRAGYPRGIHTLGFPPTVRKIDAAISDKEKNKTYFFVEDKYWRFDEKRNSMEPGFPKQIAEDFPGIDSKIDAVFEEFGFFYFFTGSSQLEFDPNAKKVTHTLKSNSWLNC"}, "source": "patent US6028110A", "about": "“Succinyl hydroxamic acid, N-formyl-N-hydroxy amino carboxylic acid and succinic acid amide derivatives as metalloprotease inhibitors” (British Biotech Pharmaceuticals Ltd., priority 1994, dated 2000)", "molecular_target": "stromelysin (Homo sapiens, UniProt P08254)", "assay": "Inhibition of stromelysin (14C acetylate casein)", "type": "biochemical", "conditions": "37°, 16 hours, pH 7.5", "note": "Where a name gives a salt, the structure may show the parent alone.", "data": [{"compound": "CCCCCCCCCCCCCCCC[C@H](CC(=O)O)C(=O)N[C@@H](Cc1ccccc1)C(=O)NC", "note": "[Example 1, 3R-(1S-Methylcarbamoyl-2-phenyl-ethylcarbamoyl)nonadecanoic acid (dicyclohexylamine salt)]", "values": [{"measurement": "inhibition at 100 µM", "result": 10, "unit": "%"}]}]}
